# In US10047084B2, “Imidazolone derivatives, pharmaceutical compositions and uses thereof” (BEIJING FORELANDPHARMA CO. LTD., priority 2013, dated 2018):
# Assays:
# PC-3 = assay: CTG cell survival assay, PC-3; format: cell-based; settings: Homo sapiens, PC-3 cells
# Description: (§1) 2. CTG Cell Survival Assay:
# (§2) ATP is necessarily produced during the metabolic activities of viable cells, and there is a linear relationship between the content of ATP and the number of viable cells. Cell viability assay by CTG chemiluminescence is a general method for detecting the number of viable cells in the culture cells based on this principle. The addition of the CellTiter-Glo (CTG) reagent may induce cell lysis and produce chemiluminescent signals directly proportional to the amount of ATP in the well-plate, and thereby the cell proliferation activity in the well-plate can be measured by the reading values from the chemiluminescence.
# (§3) 2.1 Experimental Materials and Instruments: […]
# (§4) 2.2 Experimental Instruments: Carbon Dioxide Incubator, SANYO-MCO-20AIC, Biosafe Cabinet: BSC-1360-LIIA2, Table-Top High-Speed Refrigerated Centrifuge: SorvallST 16R, Microplate Rapid Oscillator: QB-9001, M3 Reader: SpectraMax M3, Microscope: OLYMPUS-CKX41/CKX31. […]
# (§5) 2.4 Experimental Procedure: • 1.4.1 Cell Thawing: Cryogenic vials were removed from the liquid nitrogen container, directly immersed in a water bath at 37° C., and shaked from time to time to thaw. […] The solution was transferred to a centrifuge tube, centrifuged for 5 min at 1000 rpm, and counted. […]
# SK-BR3/BT474 = assay: CTG cell survival assay, SK-BR3/BT474; format: cell-based; settings: SK-BR3/BT474 cells
# Description: as §1, §2, §3, §4, §5
compound,measurement,setting,value
"Cn1cc(-c2ccc(-c3ccc4ncc5c(c4c3)n(C3CCN(Cc4ccccc4)C3)c(=O)n5C)cn2)cn1 (stereo not shown) [Example 12, 1-(1-benzylpyrrolidin-3-yl)-3-methyl-8-(6-(1-methyl-1H-pyrazol-4-yl)pyridin-3-yl)-1H-imidazo[4,5-c]quinolin-2(3H)-one]",EC50,PC-3,< 0.5 µM
same,EC50,SK-BR3/BT474,< 1 µM
"CN1CCC(n2c(=O)n(C)c3cnc4ccc(-c5ccc(-c6cnn(C)c6)nc5)cc4c32)C1 (stereo not shown) [Example 9, 3-methyl-8-(6-(1-methyl-1H-pyrazol-4-yl)pyridin-3-yl)-1-(1-methylpyrrolidin-3-yl)-1H-imidazo[4,5-c]quinolin-2(3H)-one]",EC50,PC-3,< 0.1 µM
same,EC50,SK-BR3/BT474,< 1 µM
